Values of other authors, collected in US7741435B2, “Substance P-saporin (SP-SAP) conjugates and methods of use thereof” (Advanced Targeting Systems, Inc., priority 1997, dated 2010).

Chains of the proteins cited; added tags and fusions are not shown.
UniProt P14600, whole entry: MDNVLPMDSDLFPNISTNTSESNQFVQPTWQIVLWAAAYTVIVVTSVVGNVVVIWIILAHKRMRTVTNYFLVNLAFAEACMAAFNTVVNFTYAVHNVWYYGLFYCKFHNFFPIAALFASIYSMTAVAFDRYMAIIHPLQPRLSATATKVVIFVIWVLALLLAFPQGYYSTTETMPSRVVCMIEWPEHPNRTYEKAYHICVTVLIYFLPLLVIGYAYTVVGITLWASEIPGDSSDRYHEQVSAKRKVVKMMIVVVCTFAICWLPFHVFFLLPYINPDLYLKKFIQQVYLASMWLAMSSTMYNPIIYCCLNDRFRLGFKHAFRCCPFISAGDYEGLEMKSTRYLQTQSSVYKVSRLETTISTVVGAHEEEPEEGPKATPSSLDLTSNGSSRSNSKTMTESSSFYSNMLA

Target: rat NK-1R (Rattus norvegicus, UniProt P14600)
Conditions: read-out: Kd of SP binding; KNRK cells transfected with rat NK-1R, approximately 80,000 receptors; cited from earlier work

Sequence: RPKPQQFFGLM [SP, RPKPQQFFGLM-amide]
- Kd: 6 nM
